Measured values from PubChem BioAssay (EPA / NIEHS).
The entries are a selection whose mix differs from that of the whole data set. Activity calls are given as the source filed them. Rule for the calls: active = hit-call score of the fitted dose curve at least 0.9, where 1 is the maximum; inactive = score below 0.9.

By UniProt entry, the sequences of proteins in these tests, tags left out. Where a name states a change or a piece, a line headed by the entry shows the natural chain unless it says otherwise.
UniProt Q9UNQ0: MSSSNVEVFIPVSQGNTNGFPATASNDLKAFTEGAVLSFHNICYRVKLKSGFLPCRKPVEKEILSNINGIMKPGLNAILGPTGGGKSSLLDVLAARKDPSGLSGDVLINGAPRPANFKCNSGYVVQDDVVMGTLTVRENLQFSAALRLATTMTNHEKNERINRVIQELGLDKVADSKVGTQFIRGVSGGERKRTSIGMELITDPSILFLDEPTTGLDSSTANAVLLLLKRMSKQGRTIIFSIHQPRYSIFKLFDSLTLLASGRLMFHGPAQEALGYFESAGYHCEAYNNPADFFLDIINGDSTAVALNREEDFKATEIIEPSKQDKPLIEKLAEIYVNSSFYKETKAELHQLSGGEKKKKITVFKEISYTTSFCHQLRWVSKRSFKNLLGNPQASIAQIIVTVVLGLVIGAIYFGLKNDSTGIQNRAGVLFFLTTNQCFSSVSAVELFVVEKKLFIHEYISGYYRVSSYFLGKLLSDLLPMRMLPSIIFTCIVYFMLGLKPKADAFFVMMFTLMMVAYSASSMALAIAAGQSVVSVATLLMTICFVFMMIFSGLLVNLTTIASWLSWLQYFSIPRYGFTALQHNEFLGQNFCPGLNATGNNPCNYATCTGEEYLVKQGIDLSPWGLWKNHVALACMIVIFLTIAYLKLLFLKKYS
UniProt P10415, whole entry, looked up: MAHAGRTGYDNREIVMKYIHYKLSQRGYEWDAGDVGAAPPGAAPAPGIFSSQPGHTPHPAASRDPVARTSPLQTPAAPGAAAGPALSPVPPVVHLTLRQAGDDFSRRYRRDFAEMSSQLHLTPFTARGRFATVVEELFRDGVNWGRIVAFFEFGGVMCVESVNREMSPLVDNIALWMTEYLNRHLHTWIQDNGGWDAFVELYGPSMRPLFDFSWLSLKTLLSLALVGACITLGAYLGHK
UniProt P42574: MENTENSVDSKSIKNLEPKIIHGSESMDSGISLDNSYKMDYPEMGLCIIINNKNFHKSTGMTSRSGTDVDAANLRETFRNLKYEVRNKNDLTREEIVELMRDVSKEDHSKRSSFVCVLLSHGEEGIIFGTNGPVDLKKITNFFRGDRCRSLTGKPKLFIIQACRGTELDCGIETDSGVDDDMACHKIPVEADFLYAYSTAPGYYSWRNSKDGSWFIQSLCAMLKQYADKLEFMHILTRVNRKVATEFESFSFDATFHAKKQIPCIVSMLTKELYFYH

Key:
Settings in all cases: actives raise or lower the signal; mRNA level, 48 h
[1] = read-out: growth arrest and DNA damage 45 (GADD45B), GADD45B (gene 4616); test: LTEA_HepaRG_GADD45B: Life Technologies and Expression Analysis (LTEA) Assay for growth arrest and DNA damage 45 (GADD45B) using HepaRG (AID 2283461)
Procedure, shortened: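 Differentiated HepaRG cells, plated 48 h then switched to serum-free induction medium, were exposed 48 h in duplicate to eight half-log concentrations from 100 uM in 0.5% DMSO; mRNA quantified by qRT-PCR, normalized to ACTB/GAPDH/POLR2A, bidirectional fit versus DMSO.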

[2] = read-out: ABC Transporter (ABCC3), ABCC3 (gene 8714); test: LTEA_HepaRG_ABCC3: Life Technologies and Expression Analysis (LTEA) Assay for ABC Transporter (ABCC3) using HepaRG (AID 2283462)
Procedure, shortened: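 HepaRG cells in serum-free induction medium were exposed for 48 h in duplicate to 8-point half-log concentrations topping at 100 uM in 0.5% DMSO. ABCC3 mRNA was measured by qRT-PCR normalized to ACTB, GAPDH and POLR2A, with bidirectional fitting versus DMSO.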

[3] = read-out: ABC Transporter (ABCB11), ABCB11 (gene 8647); test: LTEA_HepaRG_ABCB11: Life Technologies and Expression Analysis (LTEA) Assay for ABC Transporter (ABCB11) using HepaRG (AID 2283463)
Procedure, shortened: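 Differentiated human HepaRG cells in serum-free induction medium, dosed in duplicate for 48 h. Eight-point half-log series from 100 uM in 0.5% DMSO; ABCB11 mRNA by qRT-PCR, normalized to ACTB, GAPDH, POLR2A, fitted bidirectionally versus DMSO.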

[4] = read-out: ABC Transporter (ABCC2), ABCC2 (gene 1244); test: LTEA_HepaRG_ABCC2: Life Technologies and Expression Analysis (LTEA) Assay for ABC Transporter (ABCC2) using HepaRG (AID 2283464)
Procedure, shortened: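 HepaRG cells were plated 48 h, switched to serum-free induction medium, then exposed in duplicate for 48 h to 8 concentrations (top 100 uM, half-log steps, 0.5% DMSO). ABCC2 mRNA was measured by qRT-PCR normalized to ACTB/GAPDH/POLR2A; bidirectional fitting versus DMSO.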

[5] = read-out: Broad substrate specificity ATP-binding cassette transporter ABCG2 (Homo sapiens) (UniProt Q9UNQ0); test: LTEA_HepaRG_ABCG2: Life Technologies and Expression Analysis (LTEA) Assay for ABC Transporter (ABCG2) using HepaRG (AID 2283465)
Procedure, shortened: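 Differentiated HepaRG cells were exposed for 48 h in serum-free induction medium to 8 half-log concentrations, top 100 uM, in 0.5% DMSO. ABCG2 mRNA was measured by qRT-PCR, normalized to ACTB, GAPDH and POLR2A, with bidirectional fitting versus DMSO.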

[6] = read-out: ATP-citrate lyase (ACLY), ACLY (gene 47); test: LTEA_HepaRG_ACLY: Life Technologies and Expression Analysis (LTEA) Assay for ATP-citrate lyase (ACLY) using HepaRG (AID 2283466)
Procedure, shortened: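 Differentiated HepaRG cells exposed 48 h in serum-free induction medium to eight half-log concentrations up to 100 uM in 0.5% DMSO, duplicates. Transcript measured by Fluidigm TaqMan qRT-PCR, normalized to ACTB, GAPDH, POLR2A; bidirectional fit versus DMSO.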

[7] = read-out: Peroxisomal acyl-coenzyme A oxidase 1 (ACOX1) gene, ACOX1 (gene 51); test: LTEA_HepaRG_ACOX1: Life Technologies and Expression Analysis (LTEA) Assay for Peroxisomal acyl-coenzyme A oxidase 1 (ACOX1) gene using HepaRG (AID 2283467)
Procedure, shortened: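 HepaRG cells, plated 48 h then switched to serum-free induction medium, were exposed in duplicate for 48 h to 8-point half-log concentrations up to 100 uM in 0.5% DMSO. ACOX1 mRNA was measured by qRT-PCR, normalized to ACTB/GAPDH/POLR2A, and fitted bidirectionally versus DMSO.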

[8] = read-out: Alkaline Phosphatase, Placental (ALPP) gene, ALPP (gene 250); test: LTEA_HepaRG_ALPP: Life Technologies and Expression Analysis (LTEA) Assay for Alkaline Phosphatase, Placental (ALPP) gene using HepaRG (AID 2283468)
Procedure, shortened: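 Differentiated human HepaRG cells were plated and cultured 48 h, then exposed in duplicate for 48 h in serum-free induction medium to eight half-log concentrations from 100 uM in 0.5% DMSO. ALPP mRNA was measured by TaqMan qRT-PCR, normalized to ACTB, GAPDH, POLR2A.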

[9] = read-out: Bcl-2 (BAD) gene, BAD (gene 572); test: LTEA_HepaRG_BAD: Life Technologies and Expression Analysis (LTEA) Assay for Bcl-2 (BAD) gene using HepaRG (AID 2283469)
Procedure, shortened: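 Differentiated HepaRG cells were exposed in duplicate in 0.5% DMSO for 48 h to eight-point half-log concentrations up to 100 uM. BAD mRNA was measured by Fluidigm TaqMan qRT-PCR, normalized to ACTB, GAPDH and POLR2A, and fitted bidirectionally against DMSO.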

[10] = read-out: Bcl-2 (BAX) gene, BAX (gene 581); test: LTEA_HepaRG_BAX: Life Technologies and Expression Analysis (LTEA) Assay for Bcl-2 (BAX) gene using HepaRG (AID 2283470)
Procedure, shortened: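 HepaRG (human liver), 48 h exposure, duplicate wells. 8-pt curve, half-log from 100 uM, 0.5% DMSO. BAX transcript by TaqMan qRT-PCR; ACTB/GAPDH/POLR2A normalization; gain or loss vs DMSO baseline.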

[11] = read-out: adenosine kinase (ADK) gene, ADK (gene 132); test: LTEA_HepaRG_ADK: Life Technologies and Expression Analysis (LTEA) Assay for adenosine kinase (ADK) gene using HepaRG (AID 2283471)
Procedure, shortened: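 HepaRG (human liver), 48 h chemical exposure, 8-pt half-log series, top 100 uM, 0.5% DMSO vehicle. Readout: ADK mRNA by qRT-PCR vs housekeeping genes; bidirectional curve fit relative to DMSO baseline.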

[12] = read-out: Alpha-fetoprotein (AFP) gene, AFP (gene 174); test: LTEA_HepaRG_AFP: Life Technologies and Expression Analysis (LTEA) Assay for Alpha-fetoprotein (AFP) gene using HepaRG (AID 2283472)
Procedure, shortened: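 HepaRG, single lot; 48 h post-plating -> serum-free induction medium; cpd 8-pt, 100 uM top, half-log, 0.5% DMSO, duplicate, 48 h. RNA -> qRT-PCR AFP, norm ACTB/GAPDH/POLR2A. Bidirectional fit vs DMSO.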

BCL2L11 (gene 10018) = test: LTEA_HepaRG_BCL2L11: Life Technologies and Expression Analysis (LTEA) Assay for Bcl-2 (BCL2L11) gene using HepaRG (AID 2283473)
Procedure, shortened: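 Differentiated human HepaRG cells in serum-free induction medium were exposed in duplicate for 48 h to eight concentrations (top 100 uM, half-log steps, 0.5% DMSO). BCL2L11 mRNA was quantified by TaqMan qRT-PCR, normalized to ACTB/GAPDH/POLR2A, bidirectional fit versus DMSO.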

[13] = read-out: Apolipoprotein A-V (APOA5) gene, APOA5 (gene 116519); test: LTEA_HepaRG_APOA5: Life Technologies and Expression Analysis (LTEA) Assay for Apolipoprotein A-V (APOA5) gene using HepaRG (AID 2283474)
Procedure, shortened: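 Differentiated human HepaRG cells were exposed in duplicate for 48 h to eight half-log concentrations from 100 uM in 0.5% DMSO. APOA5 mRNA was quantified by TaqMan qRT-PCR, normalized to ACTB, GAPDH and POLR2A, and fitted bidirectionally against DMSO.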

[14] = read-out: Apoptosis regulator Bcl-2 (Homo sapiens) (UniProt P10415); test: LTEA_HepaRG_BCL2: Life Technologies and Expression Analysis (LTEA) Assay for Bcl-2 gene using HepaRG (AID 2283475)
Procedure, shortened: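 HepaRG, plated 48 h then switched to serum-free induction medium; dosed 48 h, 8 conc. (max 100 uM, half-log steps), duplicate, 0.5% DMSO. Lysis in RLT, RNA isolated, TaqMan qRT-PCR for BCL2; ACTB/GAPDH/POLR2A normalisation; bidirectional fit vs DMSO.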

[15] = read-out: Bcl-2 (BID) gene, BID (gene 637); test: LTEA_HepaRG_BID: Life Technologies and Expression Analysis (LTEA) Assay for Bcl-2 (BID) gene using HepaRG (AID 2283476)
Procedure, shortened: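 Transcript levels of BID, measured by qRT-PCR and normalized to three housekeeping genes, were fitted bidirectionally against DMSO controls. Cells were HepaRG, dosed 48 h at up to 100 uM.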

Caspase-3 (Homo sapiens) = Caspase-3 (Homo sapiens) (UniProt P42574); test: LTEA_HepaRG_CASP3: Life Technologies and Expression Analysis (LTEA) Assay for cysteine-aspartic acid protease (CASP3) using HepaRG (AID 2283477)
Procedure, shortened: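 Differentiated human HepaRG cells in serum-free induction medium were exposed 48 h to 8-point half-log concentrations from 100 uM (0.5% DMSO vehicle). CASP3 mRNA was measured by qRT-PCR, normalised to ACTB, GAPDH and POLR2A, with bidirectional fitting against DMSO.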

[16] = read-out: Cytochrome P450 (CYP24A1), CYP24A1 (gene 1591); test: LTEA_HepaRG_CYP24A1: Life Technologies and Expression Analysis (LTEA) Assay for Cytochrome P450 (CYP24A1) using HepaRG (AID 2283478)
Procedure, shortened: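 Differentiated HepaRG cells, pre-cultured 48 h, were exposed in duplicate for 48 h in serum-free induction medium to 8 half-log concentrations (top 100 uM, 0.5% DMSO). CYP24A1 mRNA was quantified by TaqMan qRT-PCR, normalized to ACTB/GAPDH/POLR2A, fitted bidirectionally versus DMSO.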

[17] = read-out: Cytochrome P450 (CYP1A2), CYP1A2 (gene 1544); test: LTEA_HepaRG_CYP1A2: Life Technologies and Expression Analysis (LTEA) Assay for Cytochrome P450 (CYP1A2) using HepaRG (AID 2283479)
Procedure, shortened: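 Differentiated human HepaRG cells in serum-free induction medium were exposed in duplicate for 48 h to 8-point half-log concentrations up to 100 uM in 0.5% DMSO. CYP1A2 mRNA measured by qRT-PCR, normalized to ACTB, GAPDH, POLR2A; bidirectional fit vs DMSO.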

[18] = read-out: cysteine-aspartic acid protease (CASP8), CASP8 (gene 841); test: LTEA_HepaRG_CASP8: Life Technologies and Expression Analysis (LTEA) Assay for cysteine-aspartic acid protease (CASP8) using HepaRG (AID 2283480)
Procedure, shortened: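 Differentiated HepaRG cells in serum-free induction medium, 48 h exposure, eight-point half-log series from 100 uM in 0.5% DMSO, duplicates. CASP8 mRNA by qRT-PCR, normalized to ACTB, GAPDH, POLR2A; bidirectional fit versus DMSO.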

Measured: AC50

CN(C(=O)Cc1cccc2occc12)[C@H]1CC[C@@]2(CCCO2)C[C@@H]1N1CCCC1
inactive: [1] | [2] | [3] | [4] | [5] | [6] | [7] | [8] | [9] | [10] | [11] | [12] | BCL2L11 (gene 10018) | [13] | [14] | [15] | Caspase-3 (Homo sapiens) | [16] | [18]
active: [17] 50 µM

CC(C)OP(=S)(OC(C)C)SCCNS(=O)(=O)c1ccccc1
active: [3] 94 µM | [4] 86.6 µM | [5] 12.3 µM | [6] 83.6 µM | [7] 77.9 µM | [12] 9.96 µM | [17] 24.2 µM
inactive: [1] | [2] | [8] | [9] | [10] | [11] | BCL2L11 (gene 10018) | [14] | [15] | Caspase-3 (Homo sapiens) | [16] | [18]

O=C1C2CC=CCC2C(=O)N1SC(Cl)(Cl)C(Cl)Cl (stereo not drawn)
active: [1] 50 µM | [3] 75.5 µM | BCL2L11 (gene 10018) 50 µM | [13] 9.92 µM
inactive: [2] | [4] | [5] | [6] | [7] | [9] | [10] | [11] | [12] | [14] | [15] | Caspase-3 (Homo sapiens) | [16] | [17] | [18]

Cc1cc([N+](=O)[O-])cc([N+](=O)[O-])c1O
active: [2] 12.7 µM | [4] 12.5 µM | [5] 90.9 µM | [6] 12.3 µM | [7] 12.7 µM | [8] 50 µM | [10] 74.8 µM | [12] 8.08 µM | [13] 9.15 µM | [14] 88 µM | [17] 7.79 µM | [18] 12.5 µM
inactive: [9] | [15] | [16]
